The values that follow come from ChEMBL document CHEMBL1140844, “2-[(3-Methoxyphenylethyl)phenoxy]-based ABCB1 inhibitors: effect of different basic side-chains on their biological properties” (J Med Chem, 2008).

Chains of the proteins cited; added tags and fusions are not shown.
UniProt P08183, whole entry: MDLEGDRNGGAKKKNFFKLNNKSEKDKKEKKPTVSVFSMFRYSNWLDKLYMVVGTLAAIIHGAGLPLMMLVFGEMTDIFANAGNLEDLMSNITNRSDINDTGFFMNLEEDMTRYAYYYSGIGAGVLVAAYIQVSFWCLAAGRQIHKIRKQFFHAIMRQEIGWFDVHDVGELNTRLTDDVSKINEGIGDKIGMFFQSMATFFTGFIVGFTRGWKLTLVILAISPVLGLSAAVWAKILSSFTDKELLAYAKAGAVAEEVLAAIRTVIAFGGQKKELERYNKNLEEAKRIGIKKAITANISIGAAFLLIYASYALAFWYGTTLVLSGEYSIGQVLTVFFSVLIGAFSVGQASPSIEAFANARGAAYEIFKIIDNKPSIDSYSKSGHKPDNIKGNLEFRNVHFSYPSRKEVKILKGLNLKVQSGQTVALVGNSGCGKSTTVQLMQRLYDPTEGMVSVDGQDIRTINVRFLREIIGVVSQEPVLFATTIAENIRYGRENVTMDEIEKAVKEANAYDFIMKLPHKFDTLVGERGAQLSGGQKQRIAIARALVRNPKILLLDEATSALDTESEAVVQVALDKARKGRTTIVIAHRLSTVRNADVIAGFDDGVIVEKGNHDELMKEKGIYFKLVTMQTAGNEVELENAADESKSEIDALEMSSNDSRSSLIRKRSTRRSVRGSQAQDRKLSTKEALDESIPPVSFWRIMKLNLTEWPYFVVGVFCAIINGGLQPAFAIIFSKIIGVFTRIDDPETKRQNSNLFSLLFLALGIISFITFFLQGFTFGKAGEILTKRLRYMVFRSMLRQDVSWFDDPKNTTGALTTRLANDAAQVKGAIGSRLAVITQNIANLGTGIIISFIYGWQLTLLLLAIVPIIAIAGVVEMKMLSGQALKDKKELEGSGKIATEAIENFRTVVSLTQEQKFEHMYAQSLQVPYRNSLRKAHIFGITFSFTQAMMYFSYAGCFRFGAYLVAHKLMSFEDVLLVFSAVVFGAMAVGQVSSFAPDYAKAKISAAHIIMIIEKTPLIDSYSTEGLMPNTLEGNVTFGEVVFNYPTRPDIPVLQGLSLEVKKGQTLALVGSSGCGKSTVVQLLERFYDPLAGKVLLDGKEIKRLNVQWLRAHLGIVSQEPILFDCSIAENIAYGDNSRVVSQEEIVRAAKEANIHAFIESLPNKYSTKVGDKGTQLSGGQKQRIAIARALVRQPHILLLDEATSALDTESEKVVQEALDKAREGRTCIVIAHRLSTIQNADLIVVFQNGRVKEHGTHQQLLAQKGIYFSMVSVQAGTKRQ

Molecules are shown by their SMILES.

For series [1], the target named is T1, ATP-dependent translocase ABCB1 (Homo sapiens, UniProt P08183). In words: Inhibition of ABCB1-mediated [3H]vinblastine transportation in human Caco-2 cells. The class given is cell-based. Put shortly: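 Caco-2 monolayers grown 21 days (TEER >800 Ω × cm²). 20 nM [3H]vinblastine added to the basolateral side with or without compound (200 nM–400 µM) for 120 min at 37 °C. Appearance on the apical side measured by scintillation counting. IC50 from nonlinear fit. Mean of three experiments, triplicate samples.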
Background: Caco-2 monolayers are a common model of the intestinal barrier.

In series [2] the test system is Caco-2. The series is described as follows: Ratio of apparent permeability from basolateral to apical over apical to basolateral side of human Caco-2 cells after 120 mins by UV-visible spectroscopy. As to conditions: caco-2, 2 h.
Series [3] deals with T1, ATP-dependent translocase ABCB1. The series is described as follows: Inhibition of ABCB1 transfected in MDCK cells assessed as increase in calcein-AM accumulation. The class given is cell-based. A digest of the protocol: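 MDCK-ABCB1 cells (50000/well) grown to confluence overnight. Preincubated with compound in medium for 30 min at 37 °C, then 2.5 µM calcein-AM (final) for 30 min. Washed with ice-cold PBS and fluorescence read at ex 485/em 535 nm. IC50 fitted from % fluorescence increase over untreated cells vs log dose. Mean of three experiments, triplicate samples.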

Series [4] shares this target. The series is described as follows: Inhibition of ABCB1.

One may read the IC50 as the concentration that inhibits the measured activity by half. The compound `COc1cccc(CCc2ccccc2OCCCCCN2CCN(c3ccc(F)cc3)CC2)c1` had an IC50 in series [1] of 2120 nM. Further, in series [2], the Ratio is reported as 5.1.
In turn, `COc1cccc(CCc2ccccc2OCCCCN2CCN(c3ccc(F)cc3)CC2)c1` displayed a concentration for half-maximal inhibition (IC50) in series [1] of 1200 nM. The Ratio in series [2] is recorded as 3.5.
In series [1], `COc1cccc(CCc2ccccc2OCCCN2CCN(c3ccc(F)cc3)CC2)c1` showed a half-maximal inhibitory concentration (IC50) of 5300 nM. In addition, in series [2], the Ratio worked out at 2.5.
`COc1cccc(CCc2ccccc2OCCCCN2CCc3ccccc3C2)c1`: the half-inhibitory concentration (IC50) was 80 nM in series [1] and 1780 nM in series [3]. The Ratio in series [2] was 6.9.
`COc1cccc(CCc2ccccc2OCc2cccc(OC)c2OC)c1` had an IC50 in series [4] of 250 nM.
In series [1], `COc1cccc(CCc2ccccc2OCCN2CCN(c3ncccn3)CC2)c1` displayed an IC50 of 2000 nM. In addition, in series [2], the Ratio is listed as 6.6.
As to `COc1cccc(CCc2ccccc2OCCCCCN2CCN(c3cccc(Cl)c3)CC2)c1`, in series [1], the half-inhibitory concentration (IC50) was found to be 2650 nM. For the same compound, the Ratio in series [2] is given as 6.2.
